Results as given in patent US8945540B2, “Compositions for enhancing the antibacterial activity of myeloperoxidase and methods of use thereof” (Exoxemis, Inc., priority 2008, dated 2015).

Tests used:
[1] = tested on: Staphylococcus aureus; assay: Control: microbicidal activity of the amino acid or analogue alone (no glucose, MPO, glucose oxidase) in the presence of blood; type: cell-based; conditions: amino acid analogue alone 5 mM, MPO 0, GO 0
Excerpt: As a control to determine the microbicidal activity of the amino acids alone, the foregoing procedure was followed without replication, except in the absence of glucose, MPO, and glucose oxidase.

[2] = tested on: Staphylococcus aureus; assay: Microbicidal activity of the myeloperoxidase system (p-MPO, glucose oxidase, glucose) with amino acids in the presence of blood, CFU plate counts; synergy determination from these CFU; type: cell-based; conditions: Table 7, amino acid analogue 5 mM, MPO 38 U/ml, GO 33.3 U/ml
Protocol: Bacterial suspensions, specifically Staphylococcus aureus in this example, were prepared by the shake flask method to achieve late log to early stationary phase growth. Bacteria were grown 24 hours in trypticase soy broth (TSB) at 35° C. The cultures were centrifuged at 4,000 rpm for 10 minutes and the supernatants removed. The pellet was collected and washed twice with sterile 0.9% normal saline (NS). The washed microorganisms were suspended and diluted with normal saline to a 3 McFarland standard, i.e., approximately 10^9 bacteria colony forming units (CFU) per mL. Actual colony counts are confirmed by serial dilutions (10^−1 to 10^−5 or 10^−6) plated on TSA and incubated overnight at 35° C. To obtain an approximate final working target inoculum of 10^7 CFU/mL, 15 microliters of organisms per mL of final reaction mixture are used.
Glucose oxidase (GO) from Aspergillus Niger was purchased from Biozyme, Inc., UK, Cat #GO3A, 270 U/mg). Porcine Myeloperoxidase (p-MPO) (Exoxemis, Inc., Little Rock, Ark. U.S.A., 375 U/mg). […]
Staphylococcus aureus were used to give a final target concentration of 2-3×10^7 CFU (7.4 log 10) per mL and venous whole blood was used to give a final concentration of 3%. […] Serial dilution plate counts were performed from the contents of each vial in sterile saline and inoculated onto trypticase soy agar (TSA) for quantitative culture. […]

O=C(O)C1CCCNC1 (centres unmarked) [Nipecotic acid]
Average Viability CFU/ml 60 min [1]: 23200000 CFU/ml | Average Viability CFU/ml 60 min [2]: 0 CFU/ml
